The values that follow come from patent publication US8735632B2, “Compounds” (DSM IP Assets B.V., priority 2009, dated 2014).

For data set [1] the following is noted: e.g. C12-15 alkyl benzoate or diisopropyl sebaceate; typical value; cited from earlier work.
The nature of data set [2]: Solubility in C12-15 alkyl benzoate: saturation of the solvent, content in the supernatant by HPLC. It counts as physicochemical. Conditions: pure cosmetic solvent.
Data set [3] is described as follows: Reduction of solvent necessary to dissolve solid UV-filter. The format is physicochemical.
A short description of data set [4]: Solubility of BMDBM/BEMT in 1:1 (w/w) mixture C12-15 alkyl benzoate/PG-UVB, stored 1 month at RT, no re-crystallization. It counts as physicochemical.
Setting [5] is: C12-15 alkyl benzoate/PG-UVB 1:1 versus C12-15 alkyl benzoate.

In the case of butyl methoxydibenzoylmethane [BMDBM], the “solubility in the conventional cosmetic oils” value in data set [1] was “less than 20%”. Further, the “Solubility in C12-15 alkyl benzoate” value in data set [2] is listed as 14 wt.-%. Further, the “amount of C12-15 alkyl benzoate necessary to solubilize 0.5 g BMDBM” value in data set [3] (pure C12-15 alkyl benzoate) is reported as 3.0 g. Besides, the “amount of diisopropyl sebacate necessary to solubilize 0.5 g BMDBM” value in data set [3] (pure diisopropyl sebacate) is given as 2.0 g. In addition, the “Δ solubility related to cosmetic solvent” value in data set [4] (C12-15 alkyl benzoate/PG-UVB 1:1) was “+13 wt.-%”. In addition, in data set [4] (setting [5]), the “Increase of solubility BMDBM/BEMT” value is recorded as “+43%” and the Δ solubility result is listed as “+6 wt.-%”.
